Experimental data: patent US9611283B1 (dated 2017)

How the values were obtained:
[1] = test system: Ba/F3 EML4-ALK S1206R tumors; assay: In vivo efficacy, xenograft of Ba/F3 cells expressing EML4-ALK S1206R; set-up: species or system SCID Beige mice; settings: even at 200 mg/kg
[2] = test system: Ba/F3 cells expressing native EML4-ALK; assay: Accelerated in vitro mutagenesis screen

## C[C@@H](Oc1cc(-c2cnn(C3CCNCC3)c2)cnc1N)c1c(Cl)ccc(F)c1Cl [crizotinib]
[1]
  efficacy in xenograft mouse model: completely inefficacious
[2]
  mutants observed: two
[2]; number of different mutants
  mutants recovered in the screen: Eighteen
